In US20260042747A1, “KIT INHIBITORS, COMPOUNDS, PHARMACEUTICAL COMPOSITIONS, AND METHODS OF USE THEREOF” (Alivexis, Inc., priority 2022, published 2026):
pIC50: −log10 of the molar value. Like-named read-outs stand apart in the source and are kept apart here.

Chains of the proteins cited; added tags and fusions are not shown. Residues count along the entry.
UniProt P10721, 546-976 limits assumed: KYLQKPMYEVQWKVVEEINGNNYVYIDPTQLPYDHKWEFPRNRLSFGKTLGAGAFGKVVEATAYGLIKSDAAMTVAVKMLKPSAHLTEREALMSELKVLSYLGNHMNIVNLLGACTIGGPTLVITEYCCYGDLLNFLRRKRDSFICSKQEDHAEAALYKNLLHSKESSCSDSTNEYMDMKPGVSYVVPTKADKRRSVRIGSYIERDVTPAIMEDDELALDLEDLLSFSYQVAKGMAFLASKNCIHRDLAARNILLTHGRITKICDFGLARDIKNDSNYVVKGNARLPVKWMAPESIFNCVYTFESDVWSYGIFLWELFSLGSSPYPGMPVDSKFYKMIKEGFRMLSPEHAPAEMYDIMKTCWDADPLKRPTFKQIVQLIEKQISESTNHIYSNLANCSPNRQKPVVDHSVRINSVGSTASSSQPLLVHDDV

Legend:
M-07e cells = test: SCF-dependent M-07e cell proliferation assay; details: read-out: M-07e IC50, 3 days, CellTiter Glo
Method: SCF-dependent cell proliferation assay was developed to measure the inhibitory potency of the compounds in M-07e cells, which express wild-type human KIT protein. The assay was performed in 96-well plates and the IC50 of each KIT inhibitor was determined by CellTiter Glo Assay reagent and Victor X5 Multilabel Counter (Perkin Elmer).
M-07e cells were purchased from AcceGen Biotechnology. Cells were maintained with M-07e Growth medium: RPMI-1640 containing 20% FBS, 100 U/mL penicillin and 100 microgram/mL streptomycin, 10 ng/mL rhGM-CSF, 10 ng/mL rhSCF. M-07e cells were seeded at a density of 5000 cells/90 μL/well in 96-well plates. Test compounds were dissolved in 100% DMSO to make 20 mM stock solution and serially diluted 1:3 with 100% DMSO to make an 11-point dilution series with concen-trations from […] to 0.024 μM. The serially diluted compounds were then each diluted 1:50 with culture medium to obtain assay compound solutions containing 2% DMSO. Ten μL of assay compound solutions were added to the 90 μL of culture cell suspension in the 96-well plate, with a final DMSO concentration of 0.2%. The plates were then incubated in a 5% CO2 incubator at 37° C. for 3 days. To obtain Day Zero Controls for background calculation, cells were seeded at 5000 cells/100 μL in a new 96-well plate and processed on the same day. Both Day Zero controls and 3 day culture plates were then treated as follows. 100 μL of CellTiter Glo Assay reagent was added to each well and the plate was incubated at room temperature for 15 min on a shaker at 200-300 RPM. Then 100 μL of cell lysate samples were transferred to white wall 96-well plates and luminescence was measured by a plate reader. The luminescence of Day Zero Control was subtracted from the luminescence intensity of 3 day culture readings. The assay control for this experiment was cells treated with 0.2% DMSO in culture medium and wells with 100 μL of culture medium (0.2% DMSO without cells) were used as the blank for data analysis.
The IC50 value of each compound was determined by using % inhibition by nor-malizing inhibition in DMSO treated control wells to 0% using the following formula method: […]
Plot percent inhibition in proliferation of triplicates against the respective concen-trations of compound and fit the dose response curve using the sigmoidal dose response equation to generate the IC50 in GraphPad Prism 8 software.

[1] = target: recombinant human KIT tyrosine kinase protein (Homo sapiens (Human), UniProt P10721); test: KIT tyrosine kinase assay (ADP-Glo)

Row | pIC50 ([1]; read-out: KIT IC50, Table 98) | pIC50 ([1]; read-out: KIT IC50, Table 99) | SMILES | pIC50 (M-07e cells)
1 | – | 7.09 | COCC(C)N(C)c1ccc(CNC(=O)c2ccc3c(c2)[nH]c(=O)n3C)cn1 (centres unmarked) | 6.39
2 | 7.02 | – | CN(c1ccc(CNC(=O)c2ccc3c(c2)[nH]c(=O)n3C)cn1)C(C)(C)C | 6.21
3 | 7.22 | – | CN(c1cnc(CNC(=O)c2ccc3c(c2)[nH]c(=O)n3C)cn1)C1CC(F)(F)C1 | 5.92

Row | SMILES | pIC50 ([1]; read-out: KIT IC50, Table 98) | pIC50 ([1]; read-out: KIT IC50, Table 99) | pIC50 (M-07e cells)
4 | CN(c1cnc(CNC(=O)c2ccc3c(c2)[nH]c(=O)n3C)cn1)C1CCC(F)(F)CC1 | 7.27 | – | 6.60
